Results taken from PMC6480038, “In Vitro and In Silico Acetylcholinesterase Inhibitory Activity of Thalictricavine and Canadine and Their Predicted Penetration across the Blood-Brain Barrier” (Molecules, 2019).

Details: pig, pH 7.4

With `CNCCCN1c2ccccc2CCc2ccccc21` [desipramine, reference compound] the “PAMPA-BBB (Pe) experimental permeability” value was 12.7 10-6 cm.s-1.
